In US7834152B2, “Antagonists of interleukin-15” (Beth Israel Deaconess Medical Center, Inc., priority 1996, dated 2010):
Entries after “also recorded” stand apart in the source; their conditions may differ.

Legend:
[1] = tested on: PHA-activated human PBMCs; assay: [3H]-TdR proliferation assay, PHA-activated human PBMCs; type: cell-based; conditions: PHA-activated PBMCs re-stimulated with reagent
Method: Peripheral blood mononuclear cells (1×10^6/ml) were stimulated with PHA (2 μg/ml) for 72 hours at 37° C. in RPMI-1640 medium supplemented with 10% FCS, penicillin, and streptomycin, as described above.
In the next series of experiments, the FLAG-HMK-IL-15 fusion protein was tested in order to determine whether it could function as a biologically active growth factor. […] Thus, FLAG-HMK-IL-15 is a biologically active growth factor that requires expression of IL-2Rβ chains upon target cells in order to stimulate cellular proliferation.

[2] = tested on: BAF-BO3 cells transfected with pRcCMV-IL-2Rβ; assay: [3H]-TdR proliferation assay, BAF-BO3 cells expressing human IL-2Rβ; type: cell-based, murine; conditions: cells expressing wild-type human IL-2Rβ subunit
Method: The BAF-BO3 cell line is an IL-3-dependent, murine pro-B cell line. A BAF-BO3 cell line that was pre-selected for high expression of the IL-2Rα subunit was kindly provided by T. Taniguchi (Osaka, Japan; Hatakeyama et al., Cell 59:837, 1989). BAF-BO3 cells were transfected with vector control (pRcCMV-0) or cDNA encoding the human IL-2Rβ subunit cloned into pRcCMV (pRcCMV-IL-2Rβ), by electroporation at 350 volts and 500 μFarads using 20 μg of ScaI linearized plasmid. Transfected cells were selected in the presence of 1 mg/ml G418 and tested for the expression of the IL-2Rβ subunit by fluorescence activated cell sorting (FACS) analysis as described (Maslinski et al., Int. Immunol. 4:509, 1992; Hataleyama et al., Cell 59:837, 1989).
IL-3 dependent BAF-BO3 cells, which constitutively express the IL-2Rγ subunit, were transfected with a control pRcCMV construct (pRcCMV-0) or a pRcCMV construct containing cDNA encoding the full-length human IL-2Rβ_subunit and the neo^r gene (pRcCMV-IL-2Rβ). G418 resistant clones were then selected. Cells that were selected in this way were used to test the biological activity of FLAG-HMK-IL-15. […] The BAF-BO3 cells were then harvested and cell-associated radioactivity was measured by scintillation counting as described above. […]

[3] = tested on: IL-2Rαγ+ BAF-BO3 cells that express mutant S− IL-2Rβ subunit; assay: Proliferation assay, BAF-BO3 cells expressing mutant S− IL-2Rβ subunit; type: cell-based, murine; conditions: IL-2Rβ lacking serine-rich region (S−), 38 hours
Method: FIGS. 12A and 12B is a pair of graphs depicting the proliferative response of BAF-BO3 cells that express the wild-type IL-2Rβ subunit (WT, ▴ - - - ▴), the mutant IL-2Rβ subunit that lacks serine-rich region S^−, ▪ - - - ▪), or a control vector (V, ● - - - ●). The cells were incubated with IL-2 (upper graph) or IL-15 (lower graph) for 38 hours and a standard proliferation assay was performed. Error bars indicate the mean±standard deviation.
The hypothesis that elements of the IL-2Rβ chain that are required for IL-2 signal transduction are also required for IL-15 signal transduction was tested. […] Therefore, the ability of IL-15 to induce the proliferation of IL-2Rαγ^+BAF-BO3 cells that express either the wild-type IL-2Rβ subunit or a mutant IL-2Rβ protein that lacks the serine rich region (S^−).

In the case of “IL-2: recombinant human IL-2 obtained from Hoffman-La Roche”, the “cell proliferation ([3H]-TdR incorporation)” value [1] is reported as “proliferate in response to”, the “cell proliferation ([3H]-TdR incorporation)” value [2] is reported as “stimulates proliferation; also recorded: stimulate the proliferation; also recorded: stimulated cellular proliferation” and the cell proliferation [3] is reported as “neither cytokine is able to stimulate”.
